Columns and labels:
Mu-type opioid receptor = Mu-type opioid receptor (Rattus norvegicus, UniProt P33535); format: cell membranes, Membrane
[1] = target: Delta-type opioid receptor (Rattus norvegicus, UniProt P33533); assay: Binding affinity of compound evaluated for Opioid receptor delta 1 isolated from rat brain

The chains behind the UniProt entries cited, without tags or fusion partners.
UniProt P33535, whole entry: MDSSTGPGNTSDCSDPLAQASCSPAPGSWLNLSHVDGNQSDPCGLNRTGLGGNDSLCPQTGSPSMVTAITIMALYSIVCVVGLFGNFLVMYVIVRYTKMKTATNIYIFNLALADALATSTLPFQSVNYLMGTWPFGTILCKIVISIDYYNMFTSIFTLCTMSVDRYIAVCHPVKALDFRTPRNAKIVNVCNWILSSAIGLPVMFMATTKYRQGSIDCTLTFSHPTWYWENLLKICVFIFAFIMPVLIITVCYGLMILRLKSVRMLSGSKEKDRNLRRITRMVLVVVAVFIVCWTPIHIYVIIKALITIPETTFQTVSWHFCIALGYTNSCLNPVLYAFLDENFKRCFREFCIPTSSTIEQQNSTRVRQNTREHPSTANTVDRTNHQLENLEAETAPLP
UniProt P33533, whole entry: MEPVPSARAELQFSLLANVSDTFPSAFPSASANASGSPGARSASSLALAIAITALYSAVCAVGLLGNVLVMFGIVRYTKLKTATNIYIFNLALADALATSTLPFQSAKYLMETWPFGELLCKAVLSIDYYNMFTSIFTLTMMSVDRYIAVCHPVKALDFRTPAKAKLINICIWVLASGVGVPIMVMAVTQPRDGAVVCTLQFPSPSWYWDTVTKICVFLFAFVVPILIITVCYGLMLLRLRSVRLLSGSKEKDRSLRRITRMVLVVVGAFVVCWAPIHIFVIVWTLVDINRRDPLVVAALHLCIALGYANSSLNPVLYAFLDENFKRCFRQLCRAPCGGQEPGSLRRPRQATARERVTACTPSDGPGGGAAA

C=CCN1C[C@H](C)N([C@@H](c2cccc(O)c2)c2cccc(C(=O)N(CCCC)c3ccccc3)c2)C[C@H]1C
Ki (Mu-type opioid receptor): 8.88 nM
Ki [1]: 9.2 nM

C=CCN1C[C@H](C)N([C@@H](c2cccc(O)c2)c2cccc(C(=O)N(C)c3ccccc3C(F)(F)F)c2)C[C@H]1C
Ki (Mu-type opioid receptor): 2.74 nM
Ki [1]: 2.31 nM

C=CCN1C[C@H](C)N(C(c2ccc(C(=O)N(CC)CC)cc2)c2cccc(O)c2)C[C@H]1C (single isomer, unassigned)
Ki (Mu-type opioid receptor): 15 nM

C=CCN1C[C@H](C)N([C@@H](c2cccc(O)c2)c2cccc(C(=O)N(C)c3cccc(F)c3)c2)C[C@H]1C (stereo in doubt; 24)
Ki (Mu-type opioid receptor): 0.46 nM

C=CCN1C[C@H](C)N([C@@H](c2cccc(O)c2)c2cccc(C(=O)N(CCC)c3ccc(F)cc3)c2)C[C@H]1C
Ki (Mu-type opioid receptor): 7.06 nM

C=CCN1C[C@H](C)N([C@@H](c2cccc(O)c2)c2cccc(C(=O)N(C)c3cccc(F)c3)c2)C[C@H]1C (stereo in doubt; 32)
Ki (Mu-type opioid receptor): 7.56 nM

C=CCN1C[C@H](C)N([C@@H](c2cccc(O)c2)c2cccc(C(=O)N(C)CCc3ccccc3)c2)C[C@H]1C
Ki (Mu-type opioid receptor): 2.19 nM
Ki [1]: 1.75 nM

C=CCN1C[C@H](C)N([C@@H](c2cccc(O)c2)c2cccc(C(=O)N3CCCc4ccccc43)c2)C[C@H]1C
Ki (Mu-type opioid receptor): 2.55 nM

C=CCN1C[C@H](C)N([C@@H](c2cccc(O)c2)c2cccc(C(=O)N(C)c3ccc(OC)cc3)c2)C[C@H]1C
Ki (Mu-type opioid receptor): 2.35 nM

C=CCN1C[C@H](C)N([C@@H](c2cccc(O)c2)c2cccc(C(=O)N(C)c3ccccc3F)c2)C[C@H]1C
Ki (Mu-type opioid receptor): 1.58 nM
Ki [1]: 1.69 nM

C=CCN1C[C@H](C)N([C@@H](c2cccc(O)c2)c2cccc(C(=O)N(CC)c3ccc(F)cc3)c2)C[C@H]1C
Ki (Mu-type opioid receptor): 7.08 nM
Ki [1]: 6.95 nM

C=CCN1C[C@H](C)N([C@@H](c2cccc(O)c2)c2cccc(C(=O)N(CCC)c3ccccc3)c2)C[C@H]1C
Ki (Mu-type opioid receptor): 1.82 nM

C=CCN1C[C@H](C)N([C@@H](c2cccc(O)c2)c2cccc(C(=O)N(C)c3ccc(F)cc3)c2)C[C@H]1C
Ki (Mu-type opioid receptor): 1.49 nM

C=CCN1C[C@H](C)N([C@@H](c2cccc(O)c2)c2cccc(C(=O)N(c3ccccc3)C3CC3)c2)C[C@H]1C
Ki (Mu-type opioid receptor): 2.37 nM

C=CCN1C[C@H](C)N([C@@H](c2cccc(O)c2)c2cccc(C(=O)N(C)Cc3ccccc3)c2)C[C@H]1C
Ki (Mu-type opioid receptor): 2.16 nM
Ki [1]: 1.88 nM

C=CCN1C[C@H](C)N([C@@H](c2cccc(O)c2)c2cccc(C(=O)N(C)c3ccc([N+](=O)[O-])cc3)c2)C[C@H]1C
Ki (Mu-type opioid receptor): 2.78 nM
Ki [1]: 2.41 nM

C=CCN1C[C@H](C)N([C@@H](c2cccc(O)c2)c2cccc(C(=O)N(CC)c3ccccc3)c2)C[C@H]1C
Ki (Mu-type opioid receptor): 3.39 nM

C=CCN1C[C@H](C)N([C@@H](c2cccc(O)c2)c2cccc(C(=O)N(C)c3ccccc3)c2)C[C@H]1C
Ki (Mu-type opioid receptor): 1.06 nM

C=CCN1C[C@H](C)N([C@H](c2cccc(O)c2)c2cccc(C(=O)N(CC)CC)c2)C[C@H]1C
Ki (Mu-type opioid receptor): 3.2 nM

C=CCN1C[C@H](C)N([C@@H](c2cccc(O)c2)c2cccc(C(=O)N(C)c3ccc(Cl)cc3)c2)C[C@H]1C
Ki (Mu-type opioid receptor): 3.46 nM

C=CCN1C[C@H](C)N([C@H](c2cccc(O)c2)c2cccc(C(=O)N(C)c3ccccc3)c2)C[C@H]1C
Ki (Mu-type opioid receptor): 1.55 nM
Ki [1]: 1.06 nM

Source: ChEMBL document CHEMBL1145968, “3-(alphaR)-alpha-((2S,5R)-4-allyl-2,5-dimethyl-1-piperazinyl)-3-hydroxybenzyl)-N-alkyl-N-arylbenzamides: potent, non-peptidic agonists of both the micro and delta opioid receptors” (J Med Chem, 2003)
